Screening data as filed in PubChem BioAssay.
Compounds with a hit are over-represented: about 2.4% of the library has one in this group of screens.
ClpP mod = qHTS Assay for Activators of ClpP; ATP-dependent Clp protease proteolytic subunit (Bacillus subtilis (strain 168)), P80244; purified B. subtilis ClpP, FRET peptide cleavage, 20 min; Potency, µM (series often up to 57.5 µM), for inactives: at the top dose activity change, negative = active; actives 1.9% (n = 340,000); AID 651965, 2013; active means well fitted falling curve with a large enough effect; inconclusive means small, poorly fitted or top-dose-only effect; inactive means no such curve, though single readings can be large or run the other way; further: the source files actives as falling curves though it sought activators and does not explain the sign; nearly all actives have a fitted effect of over 65% in size
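Buffer: 100 mM Tris/HCl pH8, 100 mM KCl, 0.05% low protease BSA, 2.5% glycerol, 0.01% Tween-20. ClpP 10 microg/mL final; 20 min RT; delta FRET normalized to ADEP and DMSO controls.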
TSG101-PTAP inh = blocks PTAP/TSG101 interaction to inhibit HIV-1 budding | Q99816 | Fluorescence polarization, FITC-PTAP peptide / Tsg101 binding | Potency, µM (top dose mostly 115 µM), for inactives: at the highest dose activity change, negative = inhibition, usual class: inhibitors | 340,000 tested, under 10 active | AID 493005; active means well fitted inhibition curve with a large enough effect in the main read-out, with a control signal flat, not every such curve was filed as active; inconclusive means small, poorly fitted or top-dose-only effect, or effect the other way, or a change in a side signal; inactive means no such curve, though single readings can be large or run the other way; further: % of control where 0% means no effect
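FP read-out: FITC-PTAP peptide, 50 nM final, binding Tsg101 binding domain, 10 uM final; 20 min, r.t.; 10 mM HEPES pH 7.5, 0.15 M NaCl, 0.01% Tween 20, 3 mM EDTA, 0.1 mM TCEP.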
12-LOX inh = inhibitors of human 12S-lipoxygenase ALOX12; actives 1.1% (n = 580,000); P18054; AID 1671190; purified 12hLO, xylenol orange hydroperoxide absorbance; Potency, µM (highest dose often 108 µM), for the others: at the top dose activity change, negative = inhibition, hits mostly inhibitors; further: on the % scale 0 is the no-effect control and ±100 the full control effect
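Hydroperoxide product was detected by ferrous iron/xylenol orange as the 573 to 405 nm absorbance ratio. Arachidonic acid at 40 uM (final) was turned over for 30 min at room temperature by 150 nM human 12hLO, pH 7.0 Hepes buffer, after 15 min compound preincubation.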
TDP1 block = inhibitors of human tyrosyl-DNA phosphodiesterase TDP1. Q9NUW8. recombinant TDP1, AlphaScreen DNA substrate cleavage. Potency, µM (doses to about 130 µM), for inactives: at the highest dose activity change, negative = inhibition, actives largely listed as inhibitors. actives 0.28% (n = 350,000); further: on the % scale 0 is the no-effect control and ±100 the full control effect; nearly all actives have a fitted effect of over 40% in size
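Tdp1 1 nM final; 15 min RT w/ cpd; substrate 15 nM, 5 min; beads 10 ug/ml, 10 min; AlphaScreen read. Neg ctrl: no enzyme.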
Rango-impB inh = Rango-importin beta binding inhibition; Q14974; Rango CFP/YFP FRET sensor + importin beta, 45 min; Potency, µM (doses to about 92.2 µM), inactives show at the top dose inhibition of complex formation; actives 0.031% (n = 340,000); AID 540263; calls by dose curve;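 further: 0% = DMSO wells and 100% = buffer wells lacking importin beta; nearly all actives have a fitted effect of over 15% in size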
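FRET biosensor (snurportin 1 IBB flanked by EYFP and cerulean), 50 nM, with compound 5 min, then 0.125 microM importin beta in PBS, 1 mM DTT, 0.02% Tween-20, 0.1% BSA. CFP/YFP ratio read after 45 min at room temperature; pre-read flags interference.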
Rango dissoc inh = inhibitors of RanGTP-induced Rango-importin beta complex dissociation; Potency, µM (highest dose often 46.1 µM), without a hit: top-dose activity change, negative = inhibition; O95149+P62826; actives 0.071% (n = 340,000); Biochemical FRET Rango-importin beta, RanGTP-induced dissociation; AID 540253; calls by dose curve; further: % of control where 0% means no effect; nearly all actives have a fitted effect of over 45% in size
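Rango/importin beta premix (0.1/0.25 uM final), PBS + 1 mM DTT + 0.02% Tween-20 + 0.1% BSA; cpd 5 min RT; FRET pre-read; + RanGTP-RCC1 (0.6 uM Ran, 2 mM GTP, 0.2 uM RCC1); 45 min RT; FRET post-read, ex 430, em 486/530 nm.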
Active calls of the source: *; ? = inconclusive; nt = not tested or not shown; [ ] = dose if it differs, or a comment. Unless noted, the call rests on the fitted dose curve; in most records, active means well fitted curve in the direction sought with a large enough effect; inconclusive means small, poorly fitted or top-dose-only effect, or another doubt; inactive means no such curve, though single readings can be large; an effect the other way counts as inactive or inconclusive. Potency means the concentration at half of the fitted maximal effect.

Protein sequences, listed by entry. Tags and fused reporters are not part of them.
ATP-dependent Clp protease proteolytic subunit (Bacillus subtilis (strain 168)), P80244, UniProt P80244, whole entry, looked up: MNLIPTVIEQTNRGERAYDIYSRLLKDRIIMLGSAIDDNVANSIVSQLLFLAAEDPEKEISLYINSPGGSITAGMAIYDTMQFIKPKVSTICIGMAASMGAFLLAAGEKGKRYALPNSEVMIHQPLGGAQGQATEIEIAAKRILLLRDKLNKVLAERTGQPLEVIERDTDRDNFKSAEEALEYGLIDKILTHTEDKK

SMILES	ClpP mod	TSG101-PTAP inh	12-LOX inh	TDP1 block	Rango-impB inh	Rango dissoc inh
O=C(N/N=C/C=C/c1ccc([N+](=O)[O-])cc1)c1cccs1	-2%	1%	0%	nt	26µM*	-6%
O=C(N/N=C/C=C\c1ccccc1[N+](=O)[O-])c1cccs1	-1%	-1%	1%	-1%	6%	-5%
COCC(=O)N[C@H]1C[C@@H](CO)N(Cc2cc(F)c(F)c(F)c2)C1	nt	nt	8%	nt	nt	nt
O=C1C=C(c2cccc(Cl)c2O)C[C@@H](c2ccc(Cl)cc2)C1	-4%	-3%	11µM*	0%	?	-15%
CN(CCOc1ccccc1)C(=O)C1CCN(C(=O)c2ccc(F)cc2)CC1	22µM*	-6%	-29%	4%	0%	18%
Cc1cc(C(=O)N2CCC(=O)N(Cc3ccc(F)cc3)C(C(C)C)C2)on1 (stereo unspecified)	nt	nt	34%	nt	nt	nt
CCn1c(C)nc2cc(C(=O)NN=Cc3ccc([N+](=O)[O-])cc3)ccc21	-1%	0%	-3%	45µM*	0%	9%
CCN(CC(=O)Nc1ccccc1C(F)(F)F)C(=O)c1oc2c(Cl)cccc2c1C	35µM*	-5%	-16%	-1%	7%	10%
Cc1ccc(Cl)c(OCc2n[nH]c(=S)n2CC2CCCO2)c1 (stereo unspecified)	nt	nt	0%	nt	nt	nt
O=C(CCC[C@@H]1[C@H]2CCCN3CCC[C@@H](CN1C(=O)c1cccs1)[C@@H]23)N1CCOCC1	nt	nt	50%	nt	nt	nt
Cc1ccsc1CN1CC(Oc2cccc(C(=O)NCC3CC3)c2)C1	nt	nt	10%	nt	nt	nt
CCCCc1nnc(NC(=O)c2oc3ccc(OC)cc3c2C)s1	32µM*	-2%	0%	1%	-3%	35%
COc1ccc2oc(C(=O)NCCc3ccccc3)c(C)c2c1	nt	-3%	?	nt	?	-11%
COc1ccc2oc(C(=O)NCC(c3ccco3)N(C)C)c(C)c2c1 (stereo unspecified)	28µM*	0%	-12%	3%[0.505 µM]	-1%	-9%
COc1ccc2oc(C(=O)Nc3nccs3)c(C)c2c1	nt	0%	-5%	nt	-4%	9%

Structures listed so far marked active in Rango-impB inh:
SMILES | TSG101-PTAP inh | 12-LOX inh | TDP1 block | Rango-impB inh | Rango dissoc inh
O=C(N/N=C/C=C/c1ccc([N+](=O)[O-])cc1)c1cccs1 | 1% | 0% | nt | 26µM* | -6%

New compounds follow:
SMILES	ClpP mod	TSG101-PTAP inh	12-LOX inh	TDP1 block	Rango-impB inh	Rango dissoc inh
COc1cc2[nH]c(=O)n(CCC(=O)NCc3cccnc3)c(=O)c2cc1OC	28µM*	-3%	0%	2%	0%	-8%
CCOc1cc2[nH]c(=O)n(CCCCCC(=O)NCc3ccco3)c(=O)c2cc1OCC	22µM*	0%	5%	2%	-1%	49%
COc1ccc(/C=C/C(=O)NCc2cccnc2)cc1	-5%	-4%	-5%	5%	11%	-13%
COc1cc(/C=C/C(=O)NCc2cccnc2)cc(OC)c1OC	25µM*	-3%	0%[57.4 µM]	2%	?	0%
CCCCN(C)C(=O)CCCCn1c(=O)[nH]c2cc(OCC)c(OCC)cc2c1=O	35µM*	-1%	-10%	5%	4%	-7%
COC[C@]1(O)CCN(S(=O)(=O)c2ccccc2OC)CC1(C)C	nt	nt	138%	nt	nt	nt
Cc1ccc(-c2cc(C(=O)NCCCN(C)C)c3ccccc3n2)cc1	nt	nt	-1%	nt	nt	nt
COc1ccc(CNC(=O)Nc2cccc(-c3ccc(N4CCOCC4)nn3)c2)cc1	nt	nt	7%	nt	nt	nt
Cc1cccc(NC2=CC(=O)OC(C)C2)c1 (stereo unspecified)	28µM*	0%	0%	-2%	-2%	-9%
CC(C)n1nc(C2CCOC2)nc1-c1n[nH]c2ccccc12 (stereo unspecified)	nt	nt	19%	nt	nt	nt
Cc1noc(C)c1-c1cc2c(cc(C)n2C)c(N2CCN(Cc3ccccc3)CC2)n1	nt	nt	7%[176 µM]	nt	nt	nt
Cc1ccc(OCCCCNC(C)c2ccccc2)c(C)c1 (stereo unspecified)	nt	-4%	4.5µM*	nt	-2%	-16%
Cc1ccc(OCCNCc2ccccc2)c(C)c1	0%	1%	?	0%	8%	-1%
Cc1ccc(C2NC(=O)N(CC(=O)NC3CCCCC3)C3=C2C(=O)OC3)cc1 (stereo unspecified)	nt	nt	0%	nt	nt	nt
O=C1NC(c2ccccc2)Nc2c1sc(=S)n2-c1ccccc1 (stereo unspecified)	nt	-1%	45µM*	-3%	-2%	14%
CC(=O)Oc1ccc2c(C)c(CC(=O)NC3CCS(=O)(=O)C3)c(=O)oc2c1 (stereo unspecified)	nt	nt	16%	nt	nt	nt
CC1(C)C2CCC1(C)C(NC(=O)C1CCC1)C2 (stereo unspecified)	nt	nt	-10%	nt	nt	nt
Cn1c(=O)c2c(-c3ccccc3)n(-c3cc(C(=O)O)ccc3O)cc2n(C)c1=O	-15%	nt	?	nt	nt	nt
CC(=O)Nc1ccc(-n2cc3c(c2-c2ccc(C)cc2)c(=O)n(C)c(=O)n3C)cc1	20µM*	nt	-11%	6%	nt	nt
Cn1c(=O)c2c(-c3ccccc3)n(-c3cccc(Br)c3)cc2n(C)c1=O	-12%	nt	?	nt	nt	nt
Cc1cccc(-c2c3c(=O)n(C)c(=O)n(C)c3cn2CCO)c1	28µM*	-3%	?	-3%	3%	10%
CC(=O)Nc1cccc(-n2cc3c(c2-c2ccccc2Cl)c(=O)n(C)c(=O)n3C)c1	28µM*	nt	-25%	7%	nt	nt
Cc1ccc(-c2c3c(=O)n(C)c(=O)n(C)c3cn2-c2cc(C)ccc2O)cc1	3.5µM*	nt	-8%	-4%	nt	nt
O=C(NCCNC(=O)c1cc2ccccc2[nH]1)C(=O)N1CCN(Cc2ccccc2)CC1	nt	nt	14%	nt	nt	nt
O=C([C@@H]1C[C@H](F)CN1S(=O)(=O)Cc1ccc(Cl)cc1)N1CCc2ccccc2C1	nt	nt	-15%	nt	nt	nt
Cc1ccc(C(=O)Nc2cnn(-c3ccc(C(=O)N(C)Cc4n[nH]c5c4CCCC5)cc3)c2)c(C)c1	nt	nt	13%	nt	nt	nt
Cc1ccc(S(=O)(=O)NN2C(=O)/C(=C\c3ccc(Cl)cc3)SC2=S)cc1	nt	-1%	-26%	nt	2%	-1%
Cc1ccc(/C=C2\SC(=S)N(NS(=O)(=O)c3ccc(C)cc3)C2=O)cc1	1%	-6%	35µM*	nt	-1%	25%
CCOC(=O)NC(C(=O)O)C(C)C (stereo unspecified)	nt	nt	-18%	nt	nt	nt
Cc1c(C(=O)NC2CCS(=O)(=O)C2)oc2ccccc12 (stereo unspecified)	1%	-2%	11%	3%	0%	0%
Cc1cc2oc(C(=O)NC3CCS(=O)(=O)C3)c(C)c2cc1C (stereo unspecified)	28µM*	0%	144%	2%	-6%	10%

Compounds listed so far containing a nitro group on carbon:
SMILES	ClpP mod	TSG101-PTAP inh	12-LOX inh	TDP1 block	Rango-impB inh	Rango dissoc inh
O=C(N/N=C/C=C/c1ccc([N+](=O)[O-])cc1)c1cccs1	-2%	1%	0%	nt	26µM*	-6%
O=C(N/N=C/C=C\c1ccccc1[N+](=O)[O-])c1cccs1	-1%	-1%	1%	-1%	6%	-5%
CCn1c(C)nc2cc(C(=O)NN=Cc3ccc([N+](=O)[O-])cc3)ccc21	-1%	0%	-3%	45µM*	0%	9%
